Reference: ChEMBL document CHEMBL1147725, “Identification and biological characterization of 6-aryl-7-isopropylquinazolinones as novel TRPV1 antagonists that are effective in models of chronic pain” (J Med Chem, 2006)

Amino acid sequences for entries named in this document (tags omitted).
UniProt Q8NER1, whole entry: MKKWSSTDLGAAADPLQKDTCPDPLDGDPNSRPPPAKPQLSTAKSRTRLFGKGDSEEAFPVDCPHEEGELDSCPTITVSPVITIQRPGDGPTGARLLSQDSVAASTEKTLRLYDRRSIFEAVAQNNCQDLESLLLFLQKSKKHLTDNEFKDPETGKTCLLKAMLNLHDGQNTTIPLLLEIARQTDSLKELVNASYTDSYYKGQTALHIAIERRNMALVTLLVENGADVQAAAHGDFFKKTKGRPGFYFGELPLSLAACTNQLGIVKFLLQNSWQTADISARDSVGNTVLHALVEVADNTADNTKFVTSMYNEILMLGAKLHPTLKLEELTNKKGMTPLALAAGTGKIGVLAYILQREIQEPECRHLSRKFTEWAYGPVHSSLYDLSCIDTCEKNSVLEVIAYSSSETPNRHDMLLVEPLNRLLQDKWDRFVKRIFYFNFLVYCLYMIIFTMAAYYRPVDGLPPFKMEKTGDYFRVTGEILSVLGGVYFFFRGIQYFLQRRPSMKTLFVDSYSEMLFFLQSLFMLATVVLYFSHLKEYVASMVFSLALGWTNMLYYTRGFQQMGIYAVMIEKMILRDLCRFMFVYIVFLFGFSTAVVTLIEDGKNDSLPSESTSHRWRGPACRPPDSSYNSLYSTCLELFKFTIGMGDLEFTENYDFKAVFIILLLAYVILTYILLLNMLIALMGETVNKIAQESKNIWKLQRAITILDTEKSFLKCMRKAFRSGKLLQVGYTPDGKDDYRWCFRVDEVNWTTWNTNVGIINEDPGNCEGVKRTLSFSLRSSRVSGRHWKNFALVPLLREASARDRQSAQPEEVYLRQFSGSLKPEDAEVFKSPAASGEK

Target: Transient receptor potential cation channel subfamily V member 1 (Homo sapiens, UniProt Q8NER1)
Assay: Inhibition of calcium influx evoked by capsaicin in human TRPV1 expressing cells by fluorescence assay
Assay type: functional

IC50: 1340 nM
Compound: Cc1nc(O)c2cc(-c3ccc(Cl)c(O)c3)c(C(C)C)cc2n1
